The EC50 is the midpoint of the concentration-response curve. For orientation: Emax means the maximal effect, on the per cent scale that the assay sets.

In assay [1] the target is T1, Atrial natriuretic peptide receptor 1 (Rattus norvegicus, UniProt P18910).
T1 sequence (P18910 whole entry): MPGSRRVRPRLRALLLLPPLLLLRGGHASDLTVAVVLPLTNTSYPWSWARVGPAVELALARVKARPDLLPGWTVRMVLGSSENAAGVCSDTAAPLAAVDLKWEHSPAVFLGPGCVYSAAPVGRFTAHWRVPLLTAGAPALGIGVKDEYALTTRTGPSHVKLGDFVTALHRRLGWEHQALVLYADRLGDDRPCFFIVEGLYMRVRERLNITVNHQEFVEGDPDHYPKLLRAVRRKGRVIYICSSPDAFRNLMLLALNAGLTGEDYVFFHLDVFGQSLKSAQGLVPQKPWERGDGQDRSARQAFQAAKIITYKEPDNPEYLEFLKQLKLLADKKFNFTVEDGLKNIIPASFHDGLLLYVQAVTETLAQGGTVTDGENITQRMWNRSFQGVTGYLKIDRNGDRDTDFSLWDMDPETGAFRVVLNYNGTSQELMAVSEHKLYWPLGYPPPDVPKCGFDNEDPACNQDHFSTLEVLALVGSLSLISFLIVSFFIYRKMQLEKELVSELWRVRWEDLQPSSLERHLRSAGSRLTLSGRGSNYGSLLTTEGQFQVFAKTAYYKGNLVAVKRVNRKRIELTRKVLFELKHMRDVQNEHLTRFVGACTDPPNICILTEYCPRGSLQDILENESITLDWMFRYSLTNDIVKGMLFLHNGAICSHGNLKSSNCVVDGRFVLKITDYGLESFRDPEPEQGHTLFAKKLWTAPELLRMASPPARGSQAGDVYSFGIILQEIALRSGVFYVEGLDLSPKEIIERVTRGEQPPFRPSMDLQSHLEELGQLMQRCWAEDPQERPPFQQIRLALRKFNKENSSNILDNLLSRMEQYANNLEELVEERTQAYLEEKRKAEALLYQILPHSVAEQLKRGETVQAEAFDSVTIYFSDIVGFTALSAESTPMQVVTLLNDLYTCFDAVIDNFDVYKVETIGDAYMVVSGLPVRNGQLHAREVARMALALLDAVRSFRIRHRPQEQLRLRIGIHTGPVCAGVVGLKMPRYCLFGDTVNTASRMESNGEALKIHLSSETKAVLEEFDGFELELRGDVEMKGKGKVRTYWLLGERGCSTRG
The assay can be described thus: (§1) Agonist activity at rat NPR-A expressed in CHO cells assessed as increase in cGMP accumulation after 15 mins by fluorescent assay. It counts as cell-based.

Assay [2] addresses T2, Atrial natriuretic peptide receptor 1 (Rattus norvegicus) (UniProt P18910).
T2 sequence (whole entry): T1 sequence (P18910 whole entry)
Described as §1. It counts as cell-based.

Turning to `CC[C@H](C)[C@@H]1NC(=O)[C@H](CCCNC(=N)N)NC(=O)[C@H](CC(=O)O)NC(=O)[C@H]([C@@H](C)CC)NC(=O)[C@H](CCCNC(=N)N)NC(=O)CNC(=O)CNC(=O)[C@H](Cc2ccccc2)NC(=O)[C@@H](NC(=O)[C@H](CO)NC(=O)[C@H](CO)NC(=O)[C@H](CCCNC(=N)N)NC(=O)[C@H](CCCNC(=N)N)NC(=O)[C@H](CC(C)C)NC(=O)[C@@H](N)CO)CSSC[C@@H](C(=O)N[C@@H](CC(N)=O)C(=O)N[C@@H](CO)C(=O)N[C@@H](Cc2ccccc2)C(=O)N[C@@H](CCCNC(=N)N)C(=O)N[C@@H](Cc2ccc(O)cc2)C(=O)O)NC(=O)CNC(=O)[C@H](CC(C)C)NC(=O)CNC(=O)[C@@H](CO)NC(=O)[C@H](CCC(N)=O)NC(=O)[C@H](C)NC(=O)CNC1=O`, the EC50 in assay [1] was found to be 1 nM. For the same compound, in assay [2], the Emax is 100%.

For the origin of these results see ChEMBL document CHEMBL4177698, “Discovery and in vivo effects of novel human natriuretic peptide receptor A (NPR-A) agonists with improved activity for rat NPR-A” (Bioorg Med Chem, 2017).
